Values of other authors in patent US6099822A, “Imaging methods and compositions” (priority 1998, dated 2000).

Test system: acute cerebral injury
Details: in vivo; cited from earlier work

In the case of `OC[C@H]1OC(O)[C@H]([18F])[C@@H](O)[C@@H]1O` (stereo partly shown) [F-18-FDG], the “Concentration in the center of the cerebral injury” value is given as “decreased in this region”.
